Measured values from patent US6709814B1, “Peptides causing formation of compact structures” (Rigel Pharmaceuticals, Inc., priority 1998, dated 2004).
Several values for one entry are separate records, joined by “and”; a condition that tells them apart may be missing. Equal entries are not always repeated.

Assay: Deuterium exchange followed by mass spectrometry
Details: for total exchangeable protons: pH 5, dilution into D2O

Substance | slowly exchanging protons (not exchanged within ca. 1 hour) (pH 5) | total exchangeable protons | proton exchange amplitude, fast phase (pH 5, fastest exchange, lasting at most ca. 1 hour)
MGEFLIVKS-GGGGDYKDDDDKGGGG-EFLIVKSGPP | does not have slowly exchanging protons | 36 and 35.9 | 35 and 34.8
MGEFLIVKS-GGGGYPYDVPDYASLGGGG-EFLIVKSGPP | did not have slowly exchanging protons | 40.3 | –
